By UniProt entry, the sequences of proteins in these tests, tags left out. Where a name states a change or a piece, a line headed by the entry shows the natural chain unless it says otherwise.
UniProt P33534: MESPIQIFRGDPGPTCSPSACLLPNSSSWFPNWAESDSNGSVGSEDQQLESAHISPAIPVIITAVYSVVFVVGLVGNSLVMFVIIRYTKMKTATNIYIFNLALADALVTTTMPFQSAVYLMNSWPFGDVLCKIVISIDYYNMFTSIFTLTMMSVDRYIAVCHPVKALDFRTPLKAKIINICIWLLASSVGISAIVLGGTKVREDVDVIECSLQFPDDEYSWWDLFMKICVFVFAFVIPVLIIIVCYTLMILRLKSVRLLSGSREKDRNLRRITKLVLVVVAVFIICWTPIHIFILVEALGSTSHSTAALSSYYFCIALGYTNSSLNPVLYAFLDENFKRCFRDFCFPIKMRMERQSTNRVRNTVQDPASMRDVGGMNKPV

According to ChEMBL document CHEMBL1127368, “Selective kappa-opioid agonists: synthesis and structure-activity relationships of piperidines incorporating on oxo-containing acyl group” (J Med Chem, 1994):

Columns and labels:
Mus musculus [1] = test: Tested for in vivo antinociceptive activity in mouse abdominal constriction assay; conditions: Abdomen
Mus musculus [2] = test: Tested for in vivo antinociceptive activity in mouse tail-flick assay; format: functional
Outline: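 Tail-flick antinociception in mice of 20-35 g. Ten animals per dose. ED50 with 95% confidence intervals obtained by probit analysis.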

Mus musculus [3] = test: Tested for in vivo locomotor impairment/sedation in mouse rotarod test; format: functional
Outline: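 Locomotor impairment/sedation measured on a rotarod in mice of 20-35 g. Ten animals per dose. ED50 with 95% confidence intervals obtained by regression analysis.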

[4] = biological target: Kappa-type opioid receptor (Mus musculus, UniProt P33534); test: Evaluated for the binding affinity at kappa receptor
Rattus norvegicus [5] = test: Tested for in vivo antinociceptive activity in rat abdominal constriction; format: functional; conditions: Abdomen
Outline: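 Male SD rats, 180-350 g. Abdominal constriction induced with phenyl-p-benzoquinone. Ten animals per dose. ED50 with 95% confidence intervals obtained by probit analysis.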

Rattus norvegicus [6] = test: Tested for in vivo locomotor impairment/sedation in rat rotarod; format: functional
Outline: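 Male SD rats, 180-350 g. Trained in six 5-min sessions over 2 days. Rotarod accelerated from 3 to 30 rpm across five sessions. Ten animals per dose. ED50 with 95% confidence intervals obtained by regression analysis.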

CN(C(=O)Cc1ccc(Cl)c(Cl)c1)C1CCC2(CCCO2)CC1N1CCCC1 (stereo unspecified)
ED50 (Mus musculus [1]): 0.18 µmol/kg
ED50 (Mus musculus [2]): 0.5 µmol/kg
ED50 (Mus musculus [3]): 0.65 µmol/kg
Ki [4]: 1.13 nM
ED50 (Rattus norvegicus [5]): 0.47 µmol/kg
ED50 (Rattus norvegicus [6]): 1.55 µmol/kg
